Test system: MDM2 SWIB
Format: binding, human
Conditions: library DMS-BM; bait MDM2 SWIB; prey TP53; peptide QETFSDLWKLLPENNV; columns = wild-type residues Q1-N15, rows = amino acid at that position

Row | Sequence | DMS PSSM value (position-specific score of the amino acid at the position; each column sums to 1)
1 | QETFSDLWKLLPENNV N15R (QETFSDLWKLLPENRV) | 0.01196
2 | QETFSDLWKLLPENNV N15S (QETFSDLWKLLPENSV) | 0.01451
3 | QETFSDLWKLLPENNV N15T (QETFSDLWKLLPENTV) | 0.006085
4 | QETFSDLWKLLPENNV N15V (QETFSDLWKLLPENVV) | 0.08323
5 | QETFSDLWKLLPENNV N15W (QETFSDLWKLLPENWV) | 0.007347
6 | QETFSDLWKLLPENNV N15Y (QETFSDLWKLLPENYV) | 0.01771
7 | QETFSDLWKLLPENNV P12A (QETFSDLWKLLAENNV) | 0.02288
8 | QETFSDLWKLLPENNV P12D (QETFSDLWKLLDENNV) | 0.0156
9 | QETFSDLWKLLPENNV P12E (QETFSDLWKLLEENNV) | 0.001014
10 | QETFSDLWKLLPENNV P12F (QETFSDLWKLLFENNV) | 0.06206
11 | QETFSDLWKLLPENNV P12G (QETFSDLWKLLGENNV) | 0.2119
12 | QETFSDLWKLLPENNV P12H (QETFSDLWKLLHENNV) | 0
13 | QETFSDLWKLLPENNV P12I (QETFSDLWKLLIENNV) | 0.002105
14 | QETFSDLWKLLPENNV P12K (QETFSDLWKLLKENNV) | 0
15 | QETFSDLWKLLPENNV P12L (QETFSDLWKLLLENNV) | 0.06777
16 | QETFSDLWKLLPENNV P12M (QETFSDLWKLLMENNV) | 0.04753
17 | QETFSDLWKLLPENNV P12N (QETFSDLWKLLNENNV) | 0.009292
18 | QETFSDLWKLLPENNV P12P | 0.04128
19 | QETFSDLWKLLPENNV P12Q (QETFSDLWKLLQENNV) | 0.01255
20 | QETFSDLWKLLPENNV P12R (QETFSDLWKLLRENNV) | 0
21 | QETFSDLWKLLPENNV P12S (QETFSDLWKLLSENNV) | 0.003119

Row | Sequence | DMS PSSM value (position-specific score of the amino acid at the position; each column sums to 1)
22 | QETFSDLWKLLPENNV P12T (QETFSDLWKLLTENNV) | 0.0284
23 | QETFSDLWKLLPENNV P12V (QETFSDLWKLLVENNV) | 0.01364
24 | QETFSDLWKLLPENNV P12W (QETFSDLWKLLWENNV) | 0.4568
25 | QETFSDLWKLLPENNV P12Y (QETFSDLWKLLYENNV) | 0.004058
26 | QETFSDLWKLLPENNV Q1A (AETFSDLWKLLPENNV) | 0.09572
27 | QETFSDLWKLLPENNV Q1D (DETFSDLWKLLPENNV) | 0
28 | QETFSDLWKLLPENNV Q1E (EETFSDLWKLLPENNV) | 0
29 | QETFSDLWKLLPENNV Q1F (FETFSDLWKLLPENNV) | 0.1248
30 | QETFSDLWKLLPENNV Q1G (GETFSDLWKLLPENNV) | 0.02201
31 | QETFSDLWKLLPENNV Q1H (HETFSDLWKLLPENNV) | 0.02884
32 | QETFSDLWKLLPENNV Q1I (IETFSDLWKLLPENNV) | 0.0211
33 | QETFSDLWKLLPENNV Q1K (KETFSDLWKLLPENNV) | 0.002348
34 | QETFSDLWKLLPENNV Q1L (LETFSDLWKLLPENNV) | 0
35 | QETFSDLWKLLPENNV Q1M (METFSDLWKLLPENNV) | 0.07298
36 | QETFSDLWKLLPENNV Q1N (NETFSDLWKLLPENNV) | 0.04826
37 | QETFSDLWKLLPENNV Q1P (PETFSDLWKLLPENNV) | 0.03094
38 | QETFSDLWKLLPENNV Q1Q | 0.04605
39 | QETFSDLWKLLPENNV Q1R (RETFSDLWKLLPENNV) | 0.002348
40 | QETFSDLWKLLPENNV Q1S (SETFSDLWKLLPENNV) | 0.04122
41 | QETFSDLWKLLPENNV Q1T (TETFSDLWKLLPENNV) | 0.3178
42 | QETFSDLWKLLPENNV Q1V (VETFSDLWKLLPENNV) | 0.1175

Row | Sequence | DMS PSSM value (position-specific score of the amino acid at the position; each column sums to 1)
43 | QETFSDLWKLLPENNV Q1W (WETFSDLWKLLPENNV) | 0.0009189
44 | QETFSDLWKLLPENNV Q1Y (YETFSDLWKLLPENNV) | 0.02712
45 | QETFSDLWKLLPENNV S5A (QETFADLWKLLPENNV) | 0.0715
46 | QETFSDLWKLLPENNV S5D (QETFDDLWKLLPENNV) | 0
47 | QETFSDLWKLLPENNV S5E (QETFEDLWKLLPENNV) | 0.02306
48 | QETFSDLWKLLPENNV S5F (QETFFDLWKLLPENNV) | 0.128
49 | QETFSDLWKLLPENNV S5G (QETFGDLWKLLPENNV) | 0.06795
50 | QETFSDLWKLLPENNV S5H (QETFHDLWKLLPENNV) | 0.01847
51 | QETFSDLWKLLPENNV S5I (QETFIDLWKLLPENNV) | 0.06052
52 | QETFSDLWKLLPENNV S5K (QETFKDLWKLLPENNV) | 0
53 | QETFSDLWKLLPENNV S5L (QETFLDLWKLLPENNV) | 0.2693
54 | QETFSDLWKLLPENNV S5M (QETFMDLWKLLPENNV) | 0.02806
55 | QETFSDLWKLLPENNV S5N (QETFNDLWKLLPENNV) | 0.03186
56 | QETFSDLWKLLPENNV S5P (QETFPDLWKLLPENNV) | 0.002032
57 | QETFSDLWKLLPENNV S5Q (QETFQDLWKLLPENNV) | 0.01961
58 | QETFSDLWKLLPENNV S5R (QETFRDLWKLLPENNV) | 0
59 | QETFSDLWKLLPENNV S5S | 0.07692
60 | QETFSDLWKLLPENNV S5T (QETFTDLWKLLPENNV) | 0.0594
61 | QETFSDLWKLLPENNV S5V (QETFVDLWKLLPENNV) | 0.04069
62 | QETFSDLWKLLPENNV S5W (QETFWDLWKLLPENNV) | 0.02557
63 | QETFSDLWKLLPENNV S5Y (QETFYDLWKLLPENNV) | 0.07701

Row | Sequence | DMS PSSM value (position-specific score of the amino acid at the position; each column sums to 1)
64 | QETFSDLWKLLPENNV T3A (QEAFSDLWKLLPENNV) | 0.1263
65 | QETFSDLWKLLPENNV T3D (QEDFSDLWKLLPENNV) | 0.002131
66 | QETFSDLWKLLPENNV T3E (QEEFSDLWKLLPENNV) | 0.00229
67 | QETFSDLWKLLPENNV T3F (QEFFSDLWKLLPENNV) | 0.01081
68 | QETFSDLWKLLPENNV T3G (QEGFSDLWKLLPENNV) | 0.00229
69 | QETFSDLWKLLPENNV T3H (QEHFSDLWKLLPENNV) | 0.03154
70 | QETFSDLWKLLPENNV T3I (QEIFSDLWKLLPENNV) | 0.00229
71 | QETFSDLWKLLPENNV T3K (QEKFSDLWKLLPENNV) | 0.1416
72 | QETFSDLWKLLPENNV T3L (QELFSDLWKLLPENNV) | 0.00229
73 | QETFSDLWKLLPENNV T3M (QEMFSDLWKLLPENNV) | 0.00229
74 | QETFSDLWKLLPENNV T3N (QENFSDLWKLLPENNV) | 0.02336
75 | QETFSDLWKLLPENNV T3P (QEPFSDLWKLLPENNV) | 0
76 | QETFSDLWKLLPENNV T3Q (QEQFSDLWKLLPENNV) | 0.02158
77 | QETFSDLWKLLPENNV T3R (QERFSDLWKLLPENNV) | 0.006392
78 | QETFSDLWKLLPENNV T3S (QESFSDLWKLLPENNV) | 0.3652
79 | QETFSDLWKLLPENNV T3T | 0.0867
80 | QETFSDLWKLLPENNV T3V (QEVFSDLWKLLPENNV) | 0.02747
81 | QETFSDLWKLLPENNV T3W (QEWFSDLWKLLPENNV) | 0

From publication PMC12102759 (Protein Science : A Publication of the Protein Society, 2025)
